Measurements reported in US9822179B2, “Recombinant TNF ligand family member polypeptides with antibody binding domain and uses therefor” (UNIVERSITAT STUTTGART, priority 2011, dated 2017).

Key:
[1] = Systemic tolerance in mice; format: in vivo; settings: mouse models
Protocol: (§1) FIG. 9: EGFR specific TRAIL fusion proteins lack hepatotoxic activity. Groups of 3 CD1 mice were treated intraperitonally with indicated fusion proteins or control reagents: negative control: PBS; positive control: aggregated FasL (CD95L) fusion protein. • (A) Plasma samples were prepared after 4 h and 24 h and the activity of alanine aminotransferase (ALT) was assayed using an enzymatic assay (Bioo Scientific, Austin, Tex.). Dashed line indicates upper normal level of ALT (physiologic range in adult human: 35-50 U/L). (B) Mice were sacrificed after 24 h except for positive control (animals treated with an aggregated FasL (CD95L) fusion protein show phenotypic signs of severe systemic toxicity after 2-4 hrs and die after ˜5 hrs, samples were taken after 4 hrs) and liver biopsies were taken for determination of caspase-3 activity using a specific AMC-coupled peptide substrate (Enzo Lifesciences, Lörrach, Germany).
Dashed line indicates upper normal level of ALT (35-50 U/L). (B) Mice were sacrificed after 24 h except for pos. control (animals treated with an aggregated FasL fusion protein show phenotypic signs of severe systemic toxicity after 2-4 hrs and die after ˜5 hrs, samples were taken after 4 hrs) and liver biopsies were taken for determination of caspase-3 activity using a specific AMC-coupled peptide substrate.

EGFR = target: T1, EGFR (Homo sapiens, UniProt P00533); assay: Blocking of EGF-induced EGFR autophosphorylation, immunoprecipitation and anti-pTyr immunoblot; format: cell-based; settings: 2 nM, 50 ng/ml EGF
T1 construct: EGF receptors were immunoprecipitated using a specific mouse monoclonal antibody; endogenous in cells; host or cells: Colo205 and Huh-7 cells

Huh-7 cells = assay: Growth of Huh-7 cells over three days, MTT; format: cell-based; settings: with pan-caspase inhibitor (10 μM zVADfmk)
Protocol: (§2) After 16 h, cell viability was determined using MTT staining (Colo 205) or crystal violet staining (Huh-7) and data were normalized using bortezomib-treated cells as control (mean SEM, n=3). (B) 1×10^4 Colo205 cells per well were grown in 96-well plates using medium with 0.1% FCS. […] (C) 1×10^4 Huh-7 cells per well were grown in 96-well plates and treated with 20 ng/ml bortezomib or with a combination of bortezomib and 10 μM zVADfmk.

[2] = test system: EGFR-positive Huh-7 cells; assay: Blocking of Cetuximab binding to cells, flow cytometry; settings: preincubation with 0.5 μM
Protocol: “scFv” represents an anti-EGFR specific antibody fragment used for competition.
5×10^5 cells were suspended in PBA buffer (PBS, 0.025% BSA, 0.02% sodium azide) and incubated for 1 h at 4° C. with the indicated scTRAIL fusion proteins (2 μg/ml). After washing the cells three times with PBA buffer, bound fusion proteins were detected by anti-human TRAIL mAb MAB687 (2.5 μg/ml, R&D Systems) and fluorescein isothiocyanate-labelled rabbit anti-mouse IgG Ab (1:200, Sigma-Aldrich), followed by three washing steps with PBA each. […] Expression of TRAIL receptors was detected by anti-TRAIL R1 mAb MAB347 and anti-TRAIL R2 mAb MAB6311 (4 μg/ml each, R&D Systems) in conjunction with anti-mouse IgG-FITC. EGFR expression was detected by a phycoerythrin-labelled anti-human EGFR mAb sc-101 (4 μg/ml, Santa Cruz Biotech., Santa Cruz, Calif.) (see FIG. 4).

caspase-3 = assay: Caspase-3 activity in liver biopsies of treated mice; format: in vivo, CD1 mice; settings: after 24 hrs, i.p.
Protocol: as §1
(§3) Blood samples were taken from the tail after 4 h and 24 h and incubated on ice. […] Activity of alanine aminotransaminase was determined by an enzymatic assay (BIOO Scientific, Austin, Tex., USA). […] 10 μg of protein were analyzed by conversion of the fluorogenic substrate Ac-DMQD-AMC (Enzo Life Sciences). Caspase activity in PHH and Huh-7 cells was determined as published by Seidel et al. (Hepatology 2005, 42:113-120). […]

[3] = test system: EGFR+ Huh-7 hepatocellular carcinoma cells; assay: EGFR-directed induction of cell death in Huh-7 cells, serial dilutions of protein, crystal violet; format: cell-based; settings: 250 ng/ml Bortezomib
Protocol: as §2
After 16 h, cell viability was determined using crystal violet staining. […] The values for SEQ ID NO: 102 were plotted in both panels for comparison.
As a positive control, cells were killed with 0.25% Triton X-100. Cell death assays with Huh-7 and HepG2 cells were performed in the absence (FIG. 6, Jurkat cells) or presence of Bortezomib (FIG. 7, Huh-7: 250 ng/ml, FIG. 6, HepG2: 500 ng/ml, FIG. 18, Huh-7: 250 ng/ml), Selleck Chemicals, Houston, Tex.). Bortezomib was added 30 min prior incubation with the proapoptotic ligands to sensitize cells for the induction of cell death (FIGS. 6, 7). Alternatively, cells were preincubated for 30 min with the indicated concentrations of TRAIL fusion proteins followed by addition of serial dilutions of Bortezomib (FIG. 8). TRAIL only treated cells are shown in each panel for the applied TRAIL concentration (Bortezomib 0 ng/ml) (FIG. 8). After 16 h incubation, cell viability was determined either by crystal violet staining (Huh-7, HepG2) or the MTT method (Jurkat) (Wuest et al., 2002). In the latter case a lysis buffer consisting of 15% SDS in DMF/H2O (1:1), pH 4.5 (with […]) acetic acid) was used.

[4] = test system: TRAILR+, EGFR negative Jurkat cells; assay: Binding to Jurkat cells, flow cytometry; settings: data not shown
Protocol: Therefore, we determined dissociation constants of both fusion proteins on EGFR-positive, DR4+5+NCI-H460 cells under equilibrium binding conditions at 4° C. by indirect immunofluorescence flow cytometry with an anti-TRAIL antibody. […] In principle, the measured KD values reflect cell surface interactions of both functional domains in the fusion protein, the EGFR targeting domain (Component B) and the TRAIL domain, (components A), with their respective receptors.

[5] = Alanine aminotransferase (ALT) activity in plasma of treated mice; format: in vivo, CD1 mice; settings: i.p.
Protocol: as §1, §3

B1: SEQ ID NO: 102: EGFR-specific VH-VL-scTRAIL fusion protein with linker L shortened to GGGGS; divalent, dimeric TRAIL fusion protein (protein)
chain: MDWTWRVFCLLAVAPGAHSLEASDYKDDDDKGAEVQLVESGGGLVQPGGSLRLSCAASGFSLTNYGVHWVRQAPGKGLEWLGVIWSGGNTDYNTPFTSRFTISRDNSKNTLYLQMNSLRAEDTAVYYCARALTYYDYEFAYWGQGTTVTVSSGGGGSDIQLTQSPSFLSASVGDRVTITCRASQSIGTNIHWYQQKPGKAPKLLIKYASESISGVPSRFSGSGSGTEFTLTISSLQPEDFATYYCQQNNNWPTTFGAGTKLEIKRAAAEFTRGTSEETISTVQEKQQNISPLVRERGPQRVAAHITGTRGRSNTLSSPNSKNEKALGRKINSWESSRSGHSFLSNLHLRNGELVIHEKGFYYIYSQTYFRFQEEIKENTKNDKQMVQYIYKYTSYPDPILLMKSARNSCWSKDAEYGLYSIYQGGIFELKENDRIFVSVTNEHLIDMDHEASFFGAFLVGGGGSGGGSTSEETISTVQEKQQNISPLVRERGPQRVAAHITGTRGRSNTLSSPNSKNEKALGRKINSWESSRSGHSFLSNLHLRNGELVIHEKGFYYIYSQTYFRFQEEIKENTKNDKQMVQYIYKYTSYPDPILLMKSARNSCWSKDAEYGLYSIYQGGIFELKENDRIFVSVTNEHLIDMDHEASFFGAFLVGGGGSGGGSTSEETISTVQEKQQNISPLVRERGPQRVAAHITGTRGRSNTLSSPNSKNEKALGRKINSWESSRSGHSFLSNLHLRNGELVIHEKGFYYIYSQTYFRFQEEIKENTKNDKQMVQYIYKYTSYPDPILLMKSARNSCWSKDAEYGLYSIYQGGIFELKENDRIFVSVTNEHLIDMDHEASFFGAFLVG
modifications: VH-VL(EGFR)-scTRAIL fusion protein
dose systemically well tolerated [1]: up to 3 mg/kg | blocking of EGF-induced EGFR autophosphorylation (EGFR; Colo205 cells): Functional blocking of EGF-stimulated receptor activation | blocking of EGF-induced EGFR autophosphorylation (EGFR; Huh-7 cells): Functional blocking of EGF-stimulated receptor activation | growth inhibition when apoptosis is prevented (Huh-7 cells): only a marginal growth inhibition | blocking of binding of labelled Cetuximab [2]: can be blocked | caspase-3 activity in liver (caspase-3): Lack of caspase activation | bioactivity in relation to SEQ ID NO: 96 [3]: tenfold | binding signal on Jurkat cells [4]: only very weak signals | ALT values ([5]; 4 hrs after application): only a transient marginal increase in ALT values to the upper normal limit | ALT values ([5]; after 24 hrs): baseline ALT
